Assay results taken from patent US10005720B2, “Compounds useful for the treatment of metabolic disorders and synthesis of the same” (NORTH CAROLINA CENTRAL UNIVERSITY, priority 2013, dated 2018).

What was measured:
[1] = system: FGF21 and Car3 expression; experiment: Bioassay panel: FGF21 stimulation, CAR3 suppression, stimulation of lipolysis in liver cell lines and primary hepatocytes; format: cell-based
Text: Having discovered pronounced differences in FGF21 and Car3 expression in entire cohorts of treated animals (FIG. 3A western blot), we developed cell-based bioassays that recapitulated the in vivo effects. The three bioassays for use in this study are: qPCR quantitation of FGF21 levels in HepG2 cells (FIG. 3B—left), qPCR quantification of Car3 in primary rat hepatocytes (FIG. 3B-right) and lipid droplet clearance in HepaRG cells (FIG. 3C).
Once these bioassays were developed, we explored the effect of B127443 and 70 structural analogs on these endpoints with positive outcomes passing to in vivo screening in an iterative process. We have found these compounds to be predictive/correlative of in vivo efficacy with adequate bioavailability. The qPCR assay confirmed that FGF21 gene expression increases in both liver and HepG2 cells confirming that HepG2s are a reliable in vitro model for FGF21 SAR development of B127443 analogs. […] The effect of these 5 selected compounds on FGF21 expression levels is shown in FIG. 1/SAR table above with R-group substitutions indicated. Our current set of lead molecules has importantly eliminated the undesirable aryl nitro-group through bioisostere substitutions, while improving both in vitro and in vivo efficacy, thereby avoiding potential aryl nitro-group toxicity.

[2] = system: lipid loaded HepaRG and HepG2 cells; experiment: Lipid droplet clearance in lipid-loaded liver cells (LipitoxGreen, flow cytometry); format: cell-based, human
Text: Mice deficient in components necessary to form lipid droplets are resistant to fatty liver and obesity on high fat diets and also show increased lipolysis. The in vitro models of lipid droplet metabolism involve ‘lipid loading” cells with a mixture of fatty acids to establish a lipid loading capacity, and subsequent compound treatment to determine the rate of lipid clearance. We utilized this well-established assay using lipid loaded HepaRG (Life Technologies) and HepG2 cells to determine compound effects by staining neutral lipid droplets with HCS LipitoxGreen (Life Technologies) and quantitation using flow cytometry. Briefly, cells are loaded with 1:1 Oleate/Palmitate fatty acid-BSA conjugate for 24 hours in media; subsequently, cells are treated with compound for an additional 24 hours and then remaining lipid content is evaluated by flow cytometry relative to the ‘not loaded” positive control.

## O=C(Nc1ccc([N+](=O)[O-])cc1Cl)c1cc(Cl)ccc1O [Example B-127443, Niclosamide]
[1]
  potency/activity in bioassays (FGF21 stimulation, CAR3 suppression, lipolysis): most potent small molecule
[2]; 100 nM
  lipolysis in lipid-loaded liver cells: stimulates lipolysis
[2]; 24 hours Oleate/Palmitate loading, then 24 hours compound, compared to untreated controls
  lipid content of lipid-loaded cells: significantly reduced lipid content; also recorded: reverses lipid-loaded cells to a normal lipid phenotype

Entries after “also recorded” stand apart in the source; their conditions may differ.
